Data as given in PMC6177136, “Hybrid topoisomerase I and HDAC inhibitors as dual action anticancer agents” (PLoS ONE, 2018).

Test system: A2780-Dx
Assay: Cytotoxicity assay (SRB, 72 h) A2780-Dx
Type: cell-based, Human
Details: A2780-Dx versus A2780

Q: `CCc1c2c(nc3ccc(OC(=O)N4CCC(N5CCCCC5)CC4)cc13)-c1cc3c(c(=O)n1C2)COC(=O)[C@]3(O)CC` [Irinotecan] was tested. Which “RI (Resistance Index)” value did it give?
A: 5.3
